From publication PMC11558128 (Advanced Science, 2024) come the findings set out here.

By IC50 is commonly meant the concentration at which inhibition is half-maximal. Lower therefore signals inhibition by little substance.

The assay deals with T1, rKv4.2 D284K (Rattus norvegicus, UniProt Q63881, D284K).
T1 construct: expressed in transfected cells; host or cells: HEK293T
T1 sequence (Q63881 1-630 D284K): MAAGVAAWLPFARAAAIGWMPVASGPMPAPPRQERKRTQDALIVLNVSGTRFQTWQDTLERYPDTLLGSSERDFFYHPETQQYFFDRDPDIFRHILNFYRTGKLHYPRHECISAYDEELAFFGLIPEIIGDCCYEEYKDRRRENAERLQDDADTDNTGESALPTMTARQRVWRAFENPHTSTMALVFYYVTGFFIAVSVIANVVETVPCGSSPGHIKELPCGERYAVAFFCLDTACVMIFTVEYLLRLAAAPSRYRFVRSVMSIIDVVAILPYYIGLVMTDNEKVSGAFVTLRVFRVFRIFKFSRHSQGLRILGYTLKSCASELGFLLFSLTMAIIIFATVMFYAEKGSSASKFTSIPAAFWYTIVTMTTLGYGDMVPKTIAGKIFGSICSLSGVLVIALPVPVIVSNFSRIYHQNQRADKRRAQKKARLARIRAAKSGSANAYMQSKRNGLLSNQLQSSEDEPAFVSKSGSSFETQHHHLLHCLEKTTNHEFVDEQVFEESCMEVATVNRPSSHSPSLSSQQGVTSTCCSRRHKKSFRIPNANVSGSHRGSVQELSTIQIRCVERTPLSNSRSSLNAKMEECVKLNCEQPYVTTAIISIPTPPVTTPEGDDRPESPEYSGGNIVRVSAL
Kind of assay: cell-based. The conditions noted are these: SEM.

Structures are written as SMILES.

With `CC[C@H](C)[C@H](NC(=O)[C@H](CCCCN)NC(=O)[C@H](Cc1ccc(O)cc1)NC(=O)[C@H](CCCCN)NC(=O)[C@@H]1CSSC[C@@H]2NC(=O)[C@H](CCC(=O)O)NC(=O)[C@H](CC(=O)O)NC(=O)[C@H](CCCCN)NC(=O)CNC(=O)[C@@H]3CCCN3C(=O)[C@H]([C@@H](C)O)NC(=O)[C@@H]3CSSC[C@H](NC(=O)[C@H](C(C)C)NC(=O)[C@H](Cc4c[nH]cn4)NC(=O)[C@H](CC(N)=O)NC(=O)[C@@H]4CCCN4C(=O)[C@H](CSSC[C@H](NC(=O)[C@H](C)N)C(=O)N[C@@H](CCCCN)C(=O)NCC(=O)N[C@@H]([C@@H](C)CC)C(=O)N[C@@H](Cc4ccccc4)C(=O)N[C@@H](C(C)C)C(=O)N[C@@H]([C@@H](C)O)C(=O)N3)NC2=O)C(=O)N[C@@H](CO)C(=O)N[C@@H](CO)C(=O)N[C@@H](CCCCN)C(=O)N[C@@H](Cc2c[nH]cn2)C(=O)N[C@@H](CCCCN)C(=O)N[C@@H](Cc2c[nH]c3ccccc23)C(=O)N1)C(N)=O` [Cl6b], the midpoint of inhibition, the IC50, lay at 15.4 ± 6.16 µM.
